Experimental data: patent EP4665839B1, “CELL CULTURE MEDIA” (dated 2026)

Columns and labels:
recombinant mAb = experiment: Norvaline incorporation: middle-up mass analysis and peptide mapping; details: mAb produced with CCM supplemented with N-L-NVa-Tyr HCl
Text: Apostol et al. reported that Norvaline can be incorporated instead of leucine in the α and β subunits of recombinant human hemoglobin expressed in Escherichia coli (Apostol, I., Levine, J., Lippincott, J., Leach, J., Hess, E., Glascock, C. B., Weickert, M. J., & Blackmore, R. (1997). Incorporation of norvaline at leucine positions in recombinant human hemoglobin expressed in Escherichia coli. Journal of Biological Chemistry, 272(46), 28980-28988. https://doi.org/10.1074/jbc.272.46.28980). […] Putative incorporation of NVa instead of Leu can be studied via intact mass analysis and peptide mapping.
Molecular masses of mAb light and heavy chains obtained after reduction were measured using an UHPLC (Vanquish Horizon UHPLC, Thermo Fisher Scientific) coupled with an ESI-Q-ToF mass spectrometer (Impact II, Bruker Daltonics). Briefly, 500 ng of samples were loaded on an Reversed-Phase column (1000Å, 5µm, 2.1x50mm, Agilent) thermostated at 80°C with a flow rate of 0.6 mL/min and eluted with the gradient presented in Table 2. LC-MS gradient used for intact mass analysis. MS analysis was performed using the Impact II mass spectrometer equipped with an ESI source (Bruker Daltonics). MS acquisition was performed in positive mode with end plate offset and capillary voltages set at 500 and 4500 V, respectively. Nebulizer and dry gas were set at 3.0 bar and 12.0 L/min, respectively. […]

[1] = Storage stability of 6-fold concentrated CCM (UPLC amino acid analysis)
Procedure: […] . The concentration of Tyr, N-L-NVa-Tyr HCl and NVa was determined by amino acid analysis using UPLC. To remove undissolved compound, a filtration step (0.22 µm pore size) was performed prior to amino acid analysis.

[2] = Maximum solubility in 6-fold concentrated CCM (oversaturated solution, UPLC)
Procedure: […] . Samples were taken after 30 minutes of stirring. Measurement was performed after a filtration step (0.22µm) to remove undissolved compound.

[3] = Solubility in 6-fold concentrated CCM by turbidity measurement; details: pH 7.3
Text: . A solution having a turbidity below 5 NTU is considered soluble. […] . […] Further details can be found in Example 11. • Figures 12, 13 and 14 show features of recombinant proteins. Further details can be found in Example 12. • Figures 15, 16, 17 and 18 show the cell performance of CHOZN GS clone D, CHOZN GS clone F, CHO DG44 and CHOZN GS clone G in dynamic perfusion culture. Further details can be found in Example 13.

[4] = Maximum solubility in water (oversaturated solution, filtration, UPLC amino acid analysis); details: 25°C, pH 7.3±0.1
Procedure: The maximum solubility of N-L-norvalyl-L-tyrosine HCl (N-L-NVa-Tyr HCl) was compared with the solubility of canonical amino acid L-Tyrosine (Tyr) and salts thereof in water at 25°C and pH 7.3±0.1 through the preparation of an oversaturated solution. Measurement was performed after a filtration step (0.22µm) to remove undissolved compound. The solution was measured by amino acid analysis using ultra performance liquid chromatography (UPLC).

CHO DG44 = experiment: Small scale dynamic perfusion culture
CHOZN GS clone D [5] = experiment: Small scale dynamic perfusion culture
CHOZN GS clone F = experiment: Small scale dynamic perfusion culture
CHOZN GS clone G = experiment: Small scale dynamic perfusion culture
CHOK1 GS clone A = experiment: Batch cell culture, Tyr replaced by derivative
Procedure: For cell culture experiments, a CHOK1 GS suspension cell line expressing a human IgG1, was used. Cells were cultivated in triplicates or quadruplicates in modified EX-CELL® Advanced HD Perfusion Medium (Merck Darmstadt, Germany) using 50 mL spin tubes with a starting culture volume of 30 mL and a seeding density of 0.3x10^6 viable cells/mL. Incubation was carried out at 37°C, 5% CO2, 80 % humidity and an agitation of 320 rpm. The Tyr derivatives were added in the CCM (modified EX-CELL® Advanced HD Perfusion Medium depleted in Tyr) instead of the amino acid Tyr. The pH of the CCM was neutral (pH 7.3±0.1). […] . Besides, Pro-Tyr, Gly-Tyr and Tyr-His were also tested in comparison to N-L-NVa-Tyr HCl. Experiments for Gly-Tyr and N-L-NVa-Tyr HCl were repeated at least 3 times, as well as for positive and negative control.
(§1) Viable cell density (VCD = viable cells/mL) and viability were evaluated with a Vi-CELL XR (Beckman Coulter, Fullerton, CA). Metabolite concentrations were monitored using a Cedex Bio HT (Roche Diagnostics, Mannheim, Germany) based on spectrophotometric and turbidometric methods. Quantification of amino acids was carried out via UPLC after derivatization with the AccQ•TagUltra® reagent kit. Derivatization, chromatography and data analysis were carried out following the supplier recommendations (Waters, Milford, MA).

CHOZN GS clone C = experiment: Batch cell culture, Tyr replaced by derivative
Procedure: (§2) Therefore, cells were cultivated in triplicates or quadruplicates in modified EX-CELL® Advanced HD Perfusion Medium (Merck Darmstadt, Germany) using 50 mL spin tubes with a starting culture volume of 30 mL and a seeding density of 0.3x10^6 viable cells/mL. Incubation was carried out at 37°C, 5% CO2, 80 % humidity and an agitation of 320 rpm. The Tyr derivatives were added in the CCM (modified EX-CELL® Advanced HD Perfusion Medium depleted in Tyr) instead of the canonical amino acid Tyr. The pH of the CCM was neutral (pH 7.3±0.1). […] . No negative control was used for CHOK1 non-GS clone.
as §1, with “turbidimetric” for “turbidometric”

CHOK1 non-GS clone = experiment: Batch cell culture, Tyr replaced by derivative
Procedure: as §2
as §1, with “turbidimetric” for “turbidometric”

CHOZN GS clone B = experiment: Batch cell culture, Tyr replaced by derivative
Procedure: as §2
as §1, with “turbidimetric” for “turbidometric”

CHOZN GS clone D [6] = experiment: Batch cell culture, Tyr replaced by derivative
Procedure: as §2
as §1, with “turbidimetric” for “turbidometric”

CHOZN GS clone E = experiment: Batch cell culture, Tyr replaced by derivative
Procedure: as §2
as §1, with “turbidimetric” for “turbidometric”

CHOZN GS clone A = experiment: Batch cell culture, Tyr replaced by derivative
Procedure: as §2
as §1, with “turbidimetric” for “turbidometric”

For `CCC[C@H](N)C(=O)O`, the “incorporation of L-norvaline instead of Leucine” value (recombinant mAb) was “No incorporation”.

In the case of `CCC[C@H](N)C(=O)N[C@@H](Cc1ccc(O)cc1)C(=O)O.Cl`, the “stability of 6-fold concentrated CCM” value ([1]; 4°C and RT, light protected, three months) is reported as “stable”, the “free Tyr / NVa detected” value ([1]; 4°C, 92 days) is reported as “No free Tyr nor NVa was detected” and the “stable (concentration constant) for” value ([1]; 6-fold concentrated CCM, 4°C, light protected) is reported as 92 days. The “stable for” value ([1]; 6-fold concentrated CCM, RT, light protected) was 78 days, the “free Tyr / NVa detected” value ([1]; RT, three months) was “neither free Tyr nor NVa was detected” and the “decrease of concentration of N-L-NVa-Tyr HCl” value ([1]; three months of storage at room temperature) was 10%. The maximum solubility ([2]; 6-fold concentrated modified EX-CELL Advanced HD Perfusion Medium depleted in Tyr, pH 7.3±0.1, 25°C, 30 minutes stirring) was “approximately 54 mM”, the “times more soluble than Tyr 2Na salt 2H2O” value ([2]; modified EX-CELL Advanced HD Perfusion Medium depleted in Tyr) was “at least 18 times” and the decrease in turbidity [3] was “more than 95%”. The maximal solubility [4] was 70.7 ± 0.6 mM, the viability (CHO DG44; after day seven) was “below 90%” and the maximum titer (CHO DG44; after seven days in culture) was 1360 ± 3 mg/L. The viability (CHO DG44; constantly, until day seven) was “above 90%”, the “cell performance compared to the positive control” value (CHO DG44; dynamic perfusion) was “similar” and the “maximum VCD” value (CHO DG44; on day six) was 80 x10^6 viable cells/mL. The maximum titer (CHOZN GS clone D [5]; after nine days in culture (negative control: on day six)) was 1400 ± 22 mg/L, the viability (CHOZN GS clone D [5]; constantly, until day five) was “above 90%” and the “cell performance compared to the positive control” value (CHOZN GS clone D [5]; dynamic perfusion) was “similar”. For the same compound, the viability (CHOZN GS clone D [5]; from day six) was 85 - 90%, the “maximum VCD” value (CHOZN GS clone D [5]; on day 10) was 100 x10^6 viable cells/mL and the maximum titer (CHOZN GS clone F; after nine days in culture) was 1379 ± 23 mg/L. The viability (CHOZN GS clone F; constantly, until day six) was “above 95%”, the “cell performance compared to the positive control” value (CHOZN GS clone F; dynamic perfusion) was “similar” and the viability (CHOZN GS clone F; from day six) was “below 90%”. The “maximum VCD” value (CHOZN GS clone F; on day six) was 70 x10^6 viable cells/mL, the maximum titer (CHOZN GS clone G; after nine days in culture) was 1400 ± 22 mg/L and the viability (CHOZN GS clone G; constantly, until day five) was “above 90%”. The “cell performance compared to the positive control” value (CHOZN GS clone G; dynamic perfusion) was “similar”, the viability (CHOZN GS clone G; from day six) was 85 - 90% and the “maximum VCD” value (CHOZN GS clone G; on day 10) was 100 x10^6 viable cells/mL. The “titer production / maximum IgG concentration” value (CHOK1 GS clone A; batch, after seven days) was “approximately 160 mg/L”, the viability (CHOK1 GS clone A; batch, constantly) was “above 90%” and the “maximum VCD” value (CHOK1 GS clone A; batch, after six days (negative control: after seven days)) was 12±1 x10^6 viable cells/mL. The “VCD and IgG concentration compared to the positive control” value (CHOK1 GS clone A; seven days batch process) was “comparable”, the titer production (CHOZN GS clone C; after seven days in culture) was 430 mg/L and the “cell performance compared to the positive control” value (CHOZN GS clone C; batch) was “similar”. For the same compound, the “maximum VCD” value (CHOZN GS clone C; batch) was 6.5-8 x10^6 viable cells/mL, the viability (CHOZN GS clone C; constantly, until day six) was “above 95%” and the “maximum VCD” value (CHOK1 non-GS clone; after seven days in culture) was 15-16 x10^6 viable cells/mL. For the same compound, the “cell performance compared to the positive control” value (CHOK1 non-GS clone; batch) was “similar”, the increased titer production (CHOK1 non-GS clone; compared to positive control) was 23% and the viability (CHOK1 non-GS clone; constantly) was “above 95%”. For the same compound, the “cell performance compared to the positive control” value (CHOZN GS clone B; batch) was “similar”, the “maximum VCD” value (CHOZN GS clone B; batch) was 9-10 x10^6 viable cells/mL and the viability (CHOZN GS clone B; constantly) was “above 97%”. For the same compound, the titer production (CHOZN GS clone B; on day seven of culture) was 33 mg/L, the titer (CHOZN GS clone D [6]; after seven days) was 609 ± 39 mg/L and the “cell performance compared to the positive control” value (CHOZN GS clone D [6]; batch) was “similar”. The viability (CHOZN GS clone D [6]; constantly, until day six) was “above 95%”, the “maximum VCD” value (CHOZN GS clone D [6]; positive control after seven days, N-L-NVa-Tyr HCl on day six) was 16.9±0.5 x10^6 viable cells/mL and the titer (CHOZN GS clone E; after seven days in culture (negative control: maximum titer)) was 597 ± 8 mg/L. The “cell performance compared to the positive control” value (CHOZN GS clone E; batch) was “similar”, the viability (CHOZN GS clone E; constantly) was “above 98%” and the “maximum VCD” value (CHOZN GS clone E; on day seven) was 16 x10^6 viable cells/mL. The “cell performance compared to the positive control” value (CHOZN GS clone A; batch) was “similar”, the “maximum VCD” value (CHOZN GS clone A; batch) was “approximately 11.0 x10^6 viable cells/mL” and the viability (CHOZN GS clone A; constantly) was “above 97%”. For the same compound, the titer production (CHOZN GS clone A; on day seven) was 230 mg/L.
